Data from ChEMBL document CHEMBL3886560, “Dibenzofuran derivatives as inhibitors of fructose 1,6-bisphosphatase and methods of use thereof” (2016).

Molecular target: T1, Fructose-1,6-bisphosphatase 1 (Sus scrofa, UniProt P00636)
T1 sequence (P00636 whole entry): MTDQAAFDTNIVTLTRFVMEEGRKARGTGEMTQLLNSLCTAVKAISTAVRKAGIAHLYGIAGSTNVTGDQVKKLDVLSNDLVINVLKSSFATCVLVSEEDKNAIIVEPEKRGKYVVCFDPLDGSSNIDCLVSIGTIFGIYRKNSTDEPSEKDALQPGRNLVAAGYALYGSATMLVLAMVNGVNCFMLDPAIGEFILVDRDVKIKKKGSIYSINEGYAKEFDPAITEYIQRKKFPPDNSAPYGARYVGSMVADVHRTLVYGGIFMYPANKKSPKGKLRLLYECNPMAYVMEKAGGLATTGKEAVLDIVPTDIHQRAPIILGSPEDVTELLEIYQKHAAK
Assay: Spectrophotometrical Assay: FBPase activity was measured spectrophotometrically by employing the coupling enzymes phosphoglucose isomerase and glucose-6-phosphate dehydrogenase.17 The reduction of NADP+ to NADPH was monitored directly at 340 nm. Specifically, buffer (0.2 M Tris, 4 mM MgCl2, 4 mM (NH4)2SO4, 0.1 EDTA, pH 7.5), 0.2 mM of NADP+, 1.4 units of phosphoglucose isomerase and 0.5 units of glucose-6-phosphate dehydrogenase, 0-300M of inhibitor and 9 ng of FBPase, were mixed in a cuvette and equilibrated at 30° C. 70M of FBP was then added to initiate the reaction. Absdata were collected as a function of time using a JASCO V-630 spectrophotometer.

In the case of CC(=O)C1=C(O)C=C2Oc3c(C(C)=O)c(O)c(C)c(O)c3C2(C)C1=O (stereo unspecified), the IC50 is reported as 930 µM.
